# Experiments:
# hemolysis = test: Hemolysis assay of the polyconjugate; assay type: cell-based
# [1] = rabbits, i.v. 1 mg/kg
# [2] = female rats, i.v., other groups (5, 10, 15 mg/kg), after completing the experiment
# [3] = Solubility assay of the polyconjugate; assay type: physicochemical; conditions: water, room temperature (22˜25° C.), as active drug
substance,measurement,setting,value
amphotericin B-hydroxyethyl starch polyconjugate [Preparation 22],hemolytic concentration (concentration of the polyene macrolide substance at the initiation of hemolysis),hemolysis,0.4 mg/mL
poly-aspartic acid-amphotericin B polyconjugate [Preparation 1],duration during which the serum concentration of drug is above 0.5 mg/L,[1],18.4 h
same,time of serum concentration peak,[1]; free drug,7.2 h
same,end of period with serum concentration above 0.5 mg/L,[1]; time after dosing,19.2 h
same,start of period with serum concentration above 0.5 mg/L,[1]; time after dosing,0.82 h
same,recovery of initial body weight,[2],regain the initial body weight
same,survival of animals,[2],all alive
poly-aspartic acid-mepartricin polyconjugate,solubility (amount of the soluble active drug),[3],0.27%
poly-glucosamine-amphotericin B polyconjugate [Preparation 3],duration during which the serum concentration of drug is above 0.5 mg/L,[1],17.41 h
same,AUC relative to the control,[1]; control = Amphotec,1.77 times
